The nature of the assay: NCI Yeast Anticancer Drug Screen. Data for the rad14 strain (AID 159).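 Further: 0% = growth of vehicle-treated control cultures.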 To be noted: S. cerevisiae rad14 strain growth inhibition, stronger effect = higher value. The method, then:
Growth inhibition of yeast strains with defined genetic alterations is measured as a screen for potential anti-cancer activity. Selected strains with alterations in DNA damage repair or cell cycle control were exposed to compounds and growth inhibition was measured relative to vehicle treated controls. The strain used in this assay is rad14

Molecules are shown by their SMILES. Only a part is listed here, and it is no random draw. The source holds several records for some structures; these can differ, active in one and inactive in another. Active and inactive are the calls of the source. No stated cut-off is given here; in the data, active means growth inhibition above about 70%; inactive means the rest.

On to `CC(C)c1nc(Nc2ccccc2)n(P(=O)(N(C)C)N(C)C)n1`, for which the growth inhibition runs as follows: (at 1.2 µM) inactive: -22%; (at 3.7 µM) inactive: -6%; (at 11.0 µM) inactive: -14%; (at 33.0 µM) inactive: 61%; (at 100.0 µM) active: 95%.
On to `O=C1OC(C(Cl)(Cl)Cl)Sc2ccccc21` (stereo not given), for which the growth inhibition (at 1.2 µM) was inactive: -3%; the growth inhibition (at 3.7 µM) was inactive: 0%; the growth inhibition (at 11.0 µM) is inactive: 5%; the growth inhibition (at 33.0 µM) is inactive: 35%; the growth inhibition (at 100.0 µM) is active: 76%.
On the same counts, the results for `N#Cc1cc([N+](=O)[O-])cc([N+](=O)[O-])c1N` are inactive: 4%, inactive: 12%, inactive: 41%, active: 70% and active: 86%.
The like results for `COc1cccc(C[N+](C)(CCCl)CCCl)c1[N+](=O)[O-]` were, in that order, inactive: -8%, inactive: -3%, inactive: 23%, active: 76% and active: 92%.
On the same counts, the results for `FC1(F)SC2C(C1(F)F)C1(Cl)C(Cl)=C(Cl)C2(Cl)C1(Cl)Cl` (stereo not given) are inactive: 9%, active: 79%, active: 99%, active: 99% and active: 98%.
Take `NC(Cc1cnc[nH]1)C(=O)O` (stereo not given): the growth inhibition is, setting by setting: (at 1.2 µM) inactive: 0%; (at 3.7 µM) inactive: 48%; (at 11.0 µM) active: 98%; (at 33.0 µM) active: 99%; (at 100.0 µM) active: 99%.
Regarding `O=[N+]([O-])c1cc([N+](=O)[O-])c2nsnc2c1`, the growth inhibition reads like this: (at 1.2 µM) inactive: 29%; (at 3.7 µM) active: 100%; (at 11.0 µM) active: 100%; (at 33.0 µM) active: 100%; (at 100.0 µM) active: 99%.

Values taken from PubChem BioAssay (NCI).
